Target: T1, NPFF1R (WT) (Homo sapiens, UniProt Q9GZQ6)
T1 construct: expressed in transfected cells; host or cells: HEK293 cells stably expressing Gα16
Experiment: NPVF-induced calcium mobilization, wild-type receptor
Type: cell-based
Details: HEK293 stably expressing Gα16, Fluo-4, mean ± S.E.M., n ≥ 3

The chains behind the UniProt entries cited, without tags or fusion partners. Where a name states a change or a piece, a line headed by the entry shows the natural chain unless it says otherwise.
UniProt Q9GZQ6: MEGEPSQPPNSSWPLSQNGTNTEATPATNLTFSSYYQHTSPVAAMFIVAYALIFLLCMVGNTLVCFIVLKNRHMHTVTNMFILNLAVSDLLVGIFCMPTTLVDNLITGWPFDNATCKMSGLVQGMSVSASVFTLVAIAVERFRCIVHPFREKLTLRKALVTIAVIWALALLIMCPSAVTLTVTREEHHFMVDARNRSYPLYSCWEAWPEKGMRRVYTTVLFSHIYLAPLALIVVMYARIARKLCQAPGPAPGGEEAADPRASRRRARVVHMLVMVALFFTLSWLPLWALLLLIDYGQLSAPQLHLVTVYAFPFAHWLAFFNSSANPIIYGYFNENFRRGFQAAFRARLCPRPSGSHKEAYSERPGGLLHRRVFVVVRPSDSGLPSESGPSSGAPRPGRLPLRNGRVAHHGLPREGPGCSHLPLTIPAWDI

With CC(C)C[C@H](NC(=O)[C@H](CC(N)=O)NC(=O)[C@@H]1CCCN1C(=O)[C@@H](N)C(C)C)C(=O)N1CCC[C@H]1C(=O)N[C@@H](CCC(N)=O)C(=O)N[C@@H](CCCNC(=N)N)C(=O)N[C@@H](Cc1ccccc1)C(N)=O [NPVF] the EC50 was 35.5 nM.
